# Measured affinities in a library of Ab-95 light chain variants

Data: MIT Lincoln Laboratory AlphaSeq set, Engelhart et al. 2022, doi:10.1038/s41597-022-01779-4, as distributed in FLAb.

Target peptide (SARS-CoV-2 spike, HR2 region): PDVDLGDISGINAS

Ab-95 is the parent antibody, in scFv form: VH, then a 15-residue (Gly4Ser)3 linker, then VL. The heavy chain is unchanged in all variants.
VH: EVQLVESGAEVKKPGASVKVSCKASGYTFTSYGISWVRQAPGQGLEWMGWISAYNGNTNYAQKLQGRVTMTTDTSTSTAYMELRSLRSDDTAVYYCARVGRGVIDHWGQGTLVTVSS
VL: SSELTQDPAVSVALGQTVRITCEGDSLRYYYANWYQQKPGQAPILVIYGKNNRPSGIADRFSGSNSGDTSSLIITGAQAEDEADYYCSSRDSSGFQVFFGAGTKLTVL

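The starting antibody came from a phage panning campaign against this peptide. The library (AAYL52) carries one to three amino acid substitutions per variant, with no insertions or deletions. The scFvs were displayed on barcoded MATa yeast, the peptide on MATalpha yeast. After mating in shaken culture at 30 °C for 16 h, diploids were selected and their barcode pairs sequenced. Each replicate has its own calibration line, from reference interactions of the BCL2 family. Each pool was mated in three replicate cultures.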

The parent's light chain CDRs are EGDSLRYYYAN, GKNNRPS, SSRDSSGFQVF; each variant's own CDRs replace them letter for letter. Scale: log10 of Kd in nM, estimated from mating counts; low values are strong binders. A mean of the replicates is given; it leaves out those without a signal. A pair that was not seen in any replicate is written "not detected"; this usually means weak binding, but a binder can also be missed. The list is sorted by this average, lowest first, undetected variants last.

mean log10 Kd (nM) | seen in | control signals | CDR-L1 | CDR-L2 | CDR-L3
1.27 | 3/3 | 2/9 | EGDSLHYKYAN | GKNNRPI | SSRDSSGFQVF
1.41 | 3/3 | 2/9 | EGDSLRYAYAN | GKNNRPS | SSRDSSGFYVE
1.64 | 3/3 | 3/9 | CGDSLRYYYAN | GKNNRPD | SSRDSSGFQVF
2.04 | 3/3 | 0/9 | VGDSLRKYYAN | GKNNRPD | SSRDSSGFQVF
2.14 | 3/3 | 2/9 | EGDSLNYYQAN | GKNNRPS | SSRDSPGFQVF
2.47 | 3/3 | 1/9 | EGDSLRYCYAN | GKNNRPS | SSRDRSGMQVF
2.50 | 3/3 | 4/9 | EGDSLRWYYAN | GKNNRPD | SSRDSSGFAVF
2.54 | 3/3 | 7/9 | EGNSLRYMYAN | GKNNRPS | SSRDSSGDQVF
2.58 | 3/3 | 4/9 | EGDSLRYYYPN | GKNNRPS | SSRDRSAFQVF
2.58 | 3/3 | 3/9 | EADILRYYYNN | GKNNRPS | SSRDSSGFQVF
2.64 | 3/3 | 3/9 | EGDINRYYAAN | GKNNRPS | SSRDSSGFQVF
2.68 | 3/3 | 4/9 | EGDSLRYYKAN | GKNNRPS | SSRDRSGFQLF
2.77 | 3/3 | 2/9 | EGESLRYYYAN | GKNNRPS | SMRDSSGFPVF
2.82 | 3/3 | 1/9 | EGDSLRYSYAC | GKNNRPS | SSRDSSGFQVF
2.86 | 3/3 | 3/9 | EGDSLFYYYAN | GKNNRPS | SSRDSSGKPVF
2.86 | 2/3 | 1/9 | EYDSLREYYAN | GKNNRQS | SSRDSSGFQVF
3.01 | 3/3 | 3/9 | EGDSLRYYYAN | GKNNRPS | SIRDFSGFQVF
3.12 | 3/3 | 2/9 | EGDSLRYYWAN | GKNIRPS | SSRDSSGFQVD
3.13 | 3/3 | 5/9 | EGDSLRYYYAN | GSNNRPS | WSRDSSGFSVF
3.20 | 3/3 | 2/9 | EGDSLRYYYAN | GKNWRPA | SSRDSSGFQVD
3.38 | 3/3 | 1/9 | EGDALRYYYAN | GKNNRQS | SSRMSSGFQVF
3.48 | 3/3 | 3/9 | EGDSLRYYYAN | GKNNIPS | SSRDSSGLQVP
3.49 | 2/3 | 6/9 | EGDSLRYYWAN | GKYARPS | SSRDSSGFQVF
3.50 | 3/3 | 3/9 | EGDSSCYYYAN | GKNNRPS | SSRDSSGRQVF
3.65 | 2/3 | 5/9 | GDDSLRYYYAN | GKNNRPS | SSRDSSNFQVF
3.68 | 1/3 | 1/9 | EGDSLKYYYAN | GKNNPPS | SSRDSSEFQVF
3.72 | 3/3 | 3/9 | EGDSLRYYYAN | GKSNRPS | PPRDSSGFQVF
3.75 | 3/3 | 2/9 | EGDSLRYYYAN | GSNNRPQ | RSRDSSGFQVF
3.75 | 2/3 | 1/9 | EKDSLRYYYRN | GKYNRPS | SSRDSSGFQVF
3.76 | 1/3 | 1/9 | EGDSLRHYYAN | GKNNRPS | SWRDSSGFLVF
3.79 | 3/3 | 3/9 | EGDSLRYYYMN | GKNNRPS | SSRVLSGFQVF
3.94 | 2/3 | 1/9 | EGDSLRYYYAN | CKNNRPN | SSPDSSGFQVF
4.00 | 1/3 | 4/9 | EGDSLRYYYAW | WKNNRPS | SSRDSEGFQVF
4.02 | 2/3 | 4/9 | TGDSLRYYYAN | FKNNRPS | SSRDSSGFQVF
4.16 | 2/3 | 1/9 | EGDSLRYYYAM | GKNNRPS | SSRDSSGHYVF
4.20 | 1/3 | 1/9 | EGDSLRYYYAN | TKNNRPS | SSRDSWRFQVF
4.29 | 2/3 | 2/9 | EGDKLRYYYAN | GKNNRPS | SHRSSSGFQVF
4.34 | 2/3 | 4/9 | EGDSLRYYYAN | GKNNRHS | SSRHSWGFQVF
4.36 | 3/3 | 5/9 | EGDSLQYYYAN | GKNNRPS | SSRTSSRFQVF
4.42 | 1/3 | 4/9 | EGDSLRYYYAK | GKGNRPS | SSRDSSGFQDF
4.58 | 1/3 | 1/9 | EGDSLCYYYAN | GKNNHWS | SSRDSSGFQVF
4.59 | 1/3 | 4/9 | EGDSLRYYYAE | GKNNRPS | SSRRSSGFQTF
4.62 | 1/3 | 5/9 | EGDSLRYYYAN | GKHNRPS | SSRDSSGFQYF
4.63 | 2/3 | 2/9 | EGDSLRYFYAN | MKNNRPS | SSRDSSGFCVF
4.66 | 1/3 | 2/9 | EGDSLRYYYAN | PKKNRCS | SSRDSSGFQVF
5.09 | 1/3 | 1/9 | EGDSWRYYYAQ | GKNNRPS | SSRDSSGQQVF
5.31 | 1/3 | 5/9 | IGDSLRYYYAN | GKNNGCS | SSRDSSGFQVF
not detected | 0/3 | 1/9 | EGDDDRYYYAN | GKNNGPS | SSRDSSGFQVF
not detected | 0/3 | 0/9 | EGDSLRYYYAN | GKNNRNS | SSEMSSGFQVF
not detected | 0/3 | 3/9 | VGDSLRYYYGN | GKNNRPS | ISRDSSGFQVF
not detected | 0/3 | 2/9 | EGDSLRYYYAN | GKVNRPS | SSRDSSGFQVG
not detected | 0/3 | 4/9 | EGDSLRYYYAH | GKNNRPS | SSRMSSGFRVF
not detected | 0/3 | 3/9 | EGDSVRYYYAN | GKWNRPS | SSRDDSGFQVF
not detected | 0/3 | 0/9 | EGDSLRYYYAN | GKNNRPS | GSRDSSGFQNM

Repeated from above, the 3 best binders with a signal in all replicates:

CDR-L1,CDR-L2,CDR-L3,mean log10 Kd (nM),seen in,control signals
EGDSLHYKYAN,GKNNRPI,SSRDSSGFQVF,1.27,3/3,2/9
EGDSLRYAYAN,GKNNRPS,SSRDSSGFYVE,1.41,3/3,2/9
CGDSLRYYYAN,GKNNRPD,SSRDSSGFQVF,1.64,3/3,3/9

As a blank, each scFv also met three strains without target: over library AAYL52, 28% of these pairings were detected, typically at 3.91 and seldom below 2.90. Also given: how often the same scFv was detected with the empty control strains. For reference, the parent read 2.31 as the reference entry and 2.25 as a member of this library.